Laboratory results published in patent US20180344856A1, “COMPOSITIONS AND/OR ARTICLES WITH IMPROVED SOLUBILITY OF A SOLID ACTIVE” (The Procter & Gamble Company, priority 2012, published 2018).

Legend:
[1] = Solvency of solvents for tetrahydrocurcuminoids (THC), visual check for crystals after storage; details: solute tetrahydrocurcuminoids (THC), 3% test solution, approximately 1:32 solute to solvent ratio, soluble = no visible crystals; for Solubility, 24 hour rest at Ambient Conditions: heated to 70° C.; for Solubility, 7 day storage at 5° C.: then equilibration to ambient conditions
[2] = Solvency of solvents for hexylresorcinol, visual check for crystals after storage; type: physicochemical; details: solute hexylresorcinol, 33.5% test solution, approximately 1:2 solute to solvent ratio, soluble = no visible crystals; for Solubility, 24 hour rest at Ambient Conditions: heated to 70° C.; for Solubility, 7 day storage at 5° C.: then equilibration to ambient conditions
Method: (§1) In the testing provided below, “soluble” (or “solubilize”), in relation to the solubility of a solid solute being tested, means that no visible crystals may be seen after a prescribed storage period at a storage condition. The storage period can vary. Suitable storage periods include about 24 hours, about 1 week, and about 30 days. Suitable storage conditions include ambient conditions or cold storage at 5° C. (approximately 1 atm). In certain embodiments, solubility may be determined after a 24 hour storage period at ambient conditions. In other embodiments, solubility may be determined after 20 days in cold storage. Other testing parameters may include storage for prolonged time periods (e.g., 30 day, 50 days, 60 days, 90 days) and at variable temperatures (e.g., 5° C., 50° C.).
(§2) The solvency of an isosorbide diester within the scope of the present invention was tested against two conventional, industry standard solvents. The solvency of isosorbide dicaprylate, isopropyl lauroyl sarcosinate, and C12-15 alkyl benzoate was tested when using hexylresorcinol (commercially available as Synovea® HR from Sytheon, Ltd.) as the solid cosmetic active. A test solution of 33.5% hexylresorcinol is prepared with heating to 70° C. Upon reaching 70° C., the examples may be mixed for about 10 minutes. Place mixtures in a covered vial and cool to the storage temperature. Solubility is evaluated for samples stored 24 hours at ambient conditions. Solubility is also evaluated for samples stored for 7 day at 5° C. followed by equilibration to ambient conditions.

[3] = Solvency of solvents for (S)-Equol, visual check for crystals after storage; type: physicochemical; details: solute (S)-Equol, 6% test solution, approximately 1:16 solute to solvent ratio, soluble = no visible crystals; for Solubility, 24 hour rest at Ambient Conditions: heated to 70° C.; for Solubility, 7 day storage at 5° C.: then equilibration to ambient conditions
Method: as §1
as §2, with “tested” for “tested when”, “(S)-Equol (i.e., 4′,7-isoflavandiol, commercially” for “hexylresorcinol (commercially”, “available” for “available as Synovea® HR”, “Girindus America, Inc, Reading, Ohio)” for “Sytheon, Ltd.)”, “solution was” for “solution”, “6% Equol” for “33.5% hexylresorcinol”

isosorbide dicaprylate
Solubility, 24 hour rest at Ambient Conditions [1]: Soluble | Solubility, 7 day storage at 5° C. [1]: Soluble | Solubility, 24 hour rest at Ambient Conditions [2]: Soluble | Solubility, 7 day storage at 5° C. [2]: Soluble | Solubility, 24 hour rest at Ambient Conditions [3]: Soluble | Solubility, 7 day storage at 5° C. [3]: Soluble

C12-15 alkyl benzoate
Solubility, 24 hour rest at Ambient Conditions [1]: Insoluble | Solubility, 7 day storage at 5° C. [1]: Insoluble | Solubility, 24 hour rest at Ambient Conditions [2]: Soluble | Solubility, 7 day storage at 5° C. [2]: Soluble | Solubility, 24 hour rest at Ambient Conditions [3]: Insoluble | Solubility, 7 day storage at 5° C. [3]: Insoluble
